The values that follow come from US20140220094A1, “METHODS AND COMPOSITIONS FOR A LAPAROSCOPIC SURGERY” (Prelief Inc., priority 2009, published 2014).

This series can be described thus: Water solubility of CGP (saturated solution). In kind it is physicochemical. From the text:
CGP has a relatively low water solubility. A saturated CGP solution only contains about 1% CGP. Thus, CGP exists in a suspension in a liquid composition containing higher concentrations of CGP. In the absence of a stabilizer, CGP possibly exists in gritty grains, which can be abrasive and thus irritate, not soothe, the urethral surface.

Regarding calcium glycerophosphate [CGP], the “CGP content of a saturated CGP solution (water solubility)” value is recorded as “about 1%”.
